Experimental data as given in ChEMBL document CHEMBL1782004, “Pyrimidine nucleotides with 4-alkyloxyimino and terminal tetraphosphate δ-ester modifications as selective agonists of the P2Y(4) receptor” (J Med Chem, 2011).

Chains of the proteins cited; added tags and fusions are not shown. Lines headed by an entry give the natural chain unless they say otherwise; changes in a name come on top.
UniProt P41231: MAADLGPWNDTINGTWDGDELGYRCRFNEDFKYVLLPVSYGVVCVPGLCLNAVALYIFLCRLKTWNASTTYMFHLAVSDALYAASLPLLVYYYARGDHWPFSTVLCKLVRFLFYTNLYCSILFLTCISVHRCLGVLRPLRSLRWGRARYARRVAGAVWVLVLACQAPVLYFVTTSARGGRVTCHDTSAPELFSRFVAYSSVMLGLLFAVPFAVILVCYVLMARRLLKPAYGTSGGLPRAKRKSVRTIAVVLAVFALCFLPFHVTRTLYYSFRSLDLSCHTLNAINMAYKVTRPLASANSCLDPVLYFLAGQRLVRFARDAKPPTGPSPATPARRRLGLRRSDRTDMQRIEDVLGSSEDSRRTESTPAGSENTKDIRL

Molecular target: P2Y purinoceptor 2 (Homo sapiens, UniProt P41231)
Test: Ratio of EC50 for human recombinant P2Y2 receptor expressed in human 1321N1 cells to EC50 for human recombinant P2Y4 receptor expressed in human 1321N1 cells
Type: cell-based

Structure (SMILES): O=c1ccn([C@@H]2O[C@H](COP(=O)(O)OP(=O)(O)OP(=O)(O)O)[C@@H](O)[C@H]2O)c(=O)[nH]1 [URIDINE TRIPHOSPHATE]
- Ratio EC50: 5
